Tests used:
[1] = target: T1, P-gp (Homo sapiens, UniProt P08183); details: pimozide 0.01 to 100 μM; mean ± S.D.
[2] = test system: Caco-2 cell monolayers; assay: Bidirectional assay across Caco-2 cell monolayers; details: substrate alone, 10 μM, mean ± S.E.M.
[3] = target: T1, P-gp; assay: Bidirectional assay across LLC-GA5-CoL150 cell monolayers; details: substrate alone, 10 μM; mean ± S.E.M.

By UniProt entry, the sequences of proteins in these tests, tags left out.
UniProt P08183, whole entry: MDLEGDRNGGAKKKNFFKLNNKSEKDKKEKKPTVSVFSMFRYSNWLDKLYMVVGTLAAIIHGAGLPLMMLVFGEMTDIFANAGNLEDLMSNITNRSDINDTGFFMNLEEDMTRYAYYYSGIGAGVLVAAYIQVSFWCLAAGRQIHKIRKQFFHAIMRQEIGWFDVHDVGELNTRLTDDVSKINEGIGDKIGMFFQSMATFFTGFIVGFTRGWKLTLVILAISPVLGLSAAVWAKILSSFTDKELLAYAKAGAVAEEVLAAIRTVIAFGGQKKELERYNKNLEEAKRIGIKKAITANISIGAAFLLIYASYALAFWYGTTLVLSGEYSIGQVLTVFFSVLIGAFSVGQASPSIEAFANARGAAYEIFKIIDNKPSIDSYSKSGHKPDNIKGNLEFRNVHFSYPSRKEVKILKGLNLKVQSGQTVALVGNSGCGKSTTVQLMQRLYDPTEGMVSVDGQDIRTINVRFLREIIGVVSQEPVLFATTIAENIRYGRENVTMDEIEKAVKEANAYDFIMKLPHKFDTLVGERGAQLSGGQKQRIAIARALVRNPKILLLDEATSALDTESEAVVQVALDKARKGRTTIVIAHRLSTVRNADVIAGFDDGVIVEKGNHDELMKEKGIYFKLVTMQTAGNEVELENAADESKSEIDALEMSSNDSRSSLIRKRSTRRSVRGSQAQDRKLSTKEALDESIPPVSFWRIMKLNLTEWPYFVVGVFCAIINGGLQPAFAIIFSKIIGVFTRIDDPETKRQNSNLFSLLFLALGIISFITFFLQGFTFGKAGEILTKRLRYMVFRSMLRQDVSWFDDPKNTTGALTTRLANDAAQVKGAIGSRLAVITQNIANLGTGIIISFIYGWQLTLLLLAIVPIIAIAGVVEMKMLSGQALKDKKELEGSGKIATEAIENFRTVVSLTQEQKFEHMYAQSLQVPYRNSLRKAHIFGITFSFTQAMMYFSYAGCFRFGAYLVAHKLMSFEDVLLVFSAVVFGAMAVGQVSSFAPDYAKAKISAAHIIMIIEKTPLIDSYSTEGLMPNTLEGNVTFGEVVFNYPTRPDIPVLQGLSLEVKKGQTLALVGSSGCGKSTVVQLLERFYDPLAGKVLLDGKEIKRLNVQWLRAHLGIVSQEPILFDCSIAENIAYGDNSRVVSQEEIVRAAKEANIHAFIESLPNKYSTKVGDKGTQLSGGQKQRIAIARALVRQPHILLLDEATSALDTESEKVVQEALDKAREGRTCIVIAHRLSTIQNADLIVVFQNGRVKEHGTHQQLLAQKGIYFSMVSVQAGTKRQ

O=c1[nH]c2ccccc2n1C1CCN(CCCC(c2ccc(F)cc2)c2ccc(F)cc2)CC1 [Pimozide]
kd (first-order rate constant) [1]: 0.67 ± 0.14 pmol/min/mg protein | Efflux Ratio [2]: 0.21±0.01 | Efflux Ratio ([2]; listed as pimozide): less than 1 | Efflux Ratio [3]: 3.62 ± 1.04
